Laboratory results: PMC6499816, “Molecular determinants regulating selective binding of autophagy adapters and receptors to ATG8 proteins” (Nature Communications, 2019)
Values belong to the substance of their own block, whether it stands above or below them.

Legend:
FIP200 T704I LIR peptide = experiment: BLI; biotinylated LIR peptide immobilised on streptavidin biosensors (Octet Red 96), ATG8 protein in solution; 25 mM Tris pH 7.5, 150 mM NaCl, 0.5 mM TCEP, 0.1% Tween-20, 1 mg/ml BSA, 25 °C; Kd from response against concentration, Y=Rmax*X/(Kd+X)
PCM1 K1957I LIR peptide = experiment: as above
PCM1 WT LIR peptide = experiment: as above
PCM1 V1956D LIR peptide = experiment: as above
[1] = molecular target: PCM1 K1957I LIR peptide (BLI); experiment: BLI; biotinylated LIR peptide (50 μg/ml) immobilised on streptavidin biosensor, ATG8 in solution; Octet Red 96; 25 mM Tris pH 7.5, 150 mM NaCl, 0.5 mM TCEP, 0.1% Tween-20, 1 mg/ml BSA; 25 °C; Kd from response against concentration
[2] = molecular target: LC3B (recombinant, BLI) (human) (UniProt Q9GZQ8); experiment: BLI

Substance: GABARAP (from UniProt O95166 1-117) (natural protein)
- Kd (FIP200 T704I LIR peptide): 0.463 µM
- Kd (PCM1 K1957I LIR peptide): 0.166 µM

Substance: GABARAP F62K (from UniProt O95166 1-117) (natural protein)
- Kd (PCM1 WT LIR peptide): 3.79 µM

Substance: GABARAP R28K (from UniProt O95166 1-117) (natural protein)
- Kd (PCM1 WT LIR peptide): 4.16 µM

Substance: GABARAP-L1 (from UniProt Q9H0R8 1-117) (natural protein)
- Kd (PCM1 V1956D LIR peptide): 5.19 µM

Substance: GABARAP-L1 (recombinant, BLI) (from UniProt Q9H0R8 1-117) (natural protein)
- fold increase in binding against the PCM1 WT LIR peptide [1]: 12 fold

Substance: LC3A (from UniProt Q9H492 1-121) (natural protein)
- Kd (FIP200 T704I LIR peptide): 6.67 µM

Substance: PCM1 LIR peptide mutated at P1962 (X7) (BLI) (from UniProt Q15154)
- Kd [2]: 394 µM

Now from value to substance:

- Kd (PCM1 WT LIR peptide): 2.78 µM
Substance: GABARAP L55V (from UniProt O95166 1-117) (natural protein)

- Kd (PCM1 WT LIR peptide): 1.99 µM
Substance: GABARAP L63I (from UniProt O95166 1-117) (natural protein)

- Kd [2]: 1050 µM
Substance: PCM1 LIR peptide mutated at the acidic residues in X−1 and X−2 (BLI) (from UniProt Q15154)
